# According to patent US12290596B2, “Compositions and methods for the treatment of opioid overdose” (priority 2021, dated 2025):
# Conditions: nalmefene HCl 3 mg IN vs naloxone HCl 4 mg IN
smiles,measurement,value
"C=C1CC[C@@]2(O)[C@H]3Cc4ccc(O)c5c4[C@@]2(CCN3CC2CC2)[C@H]1O5 [Nalmefene, 17-cyclopropylmethyl-4,5α-epoxy-6-methylenemorphinan-3,14-diol]",AUC0-inf of nalmefene compared to naloxone,2.0 fold
same,Cmax of nalmefene compared to naloxone,1.2 fold
